Target: cAMP-dependent protein kinase catalytic subunit alpha (Homo sapiens, UniProt P17612)
Experiment: inhibition of cAMP-dependent kinase PKA – biochemical, Kinase-Glo luminescence, Kemptide substrate, dose response (AID 548)

O=C(Nc1nc(-c2ccncc2)cs1)C1COc2ccccc2O1 (stereo unspecified)
IC50: 0.682 µM
